# scFv variants of Ab-14 (light chain) against a SARS-CoV-2 spike peptide

All variants were tested on one target, the spike HR2 peptide PDVDLGDISGINAS (SARS-CoV-2).

Each scFv is VH, three GGGGS repeats, VL, as in the parent Ab-14, and differs from it in the CDRs of the light chain only.
VH: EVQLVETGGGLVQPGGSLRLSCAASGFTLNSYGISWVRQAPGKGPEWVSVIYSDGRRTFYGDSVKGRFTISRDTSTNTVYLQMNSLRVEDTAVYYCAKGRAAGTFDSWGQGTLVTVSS
VL: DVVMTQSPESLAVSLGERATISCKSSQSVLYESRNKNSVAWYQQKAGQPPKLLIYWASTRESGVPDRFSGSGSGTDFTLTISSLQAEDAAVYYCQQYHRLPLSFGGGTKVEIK

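Designed CDR sequences, proposed from the first random library and measured here. Group labels follow the data file (En: ensemble of fine-tuned language models; GP: Gaussian process model; HC: hill climbing; Gen: genetic algorithm; Gibbs: Gibbs sampling; a sequence that several methods proposed may carry one label only). AlphaSeq pools MATa yeast showing the antibodies with MATalpha yeast showing the peptide. Binding brings cells together so that they mate, and sequencing counts the barcode pairs among the diploids. Scores were corrected for input abundance and mapped to Kd with protein pairs of known affinity run in the same pool. Mating was done six times.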

Variants are written as CDR1, CDR2 and CDR3 of the light chain (limits as in the source). Parent: KSSQSVLYESRNKNSVA, WASTRES, QQYHRLPLS.
This list holds designs with more than six substitutions.
Kd is apparent (estimated from mating counts) and averaged on the log scale over replicates with a signal. Smaller is tighter.
"nd" marks a missing value. The strain was present, yet no cells mated with the target were sequenced in any replicate, which points to weak or no binding.

CDR-L1	CDR-L2	CDR-L3	group	apparent Kd	replicates with signal
SITVIDNPGSQLHNNIA	SGSCRAE	QQYIRLPLI	En_Gibbs	2.4 nM	6 of 6
MIDQASMTEWDKGNSVA	EENHKYN	QQYFQLPLI	En_Gibbs	33 nM	6 of 6
KLTMITGLEKVSTSNVA	EMETREE	QQYNRLPLS	En_Gen	21 nM	6 of 6
KISQMTRVGMTHSNSIA	EEVTRAK	QQYHRLPLF	En_Gen	18 nM	6 of 6
QIGMLLNFESYKINNVA	QMSTRIN	QQYDRLPLS	En_Gen	6.5 nM	6 of 6
KLSGLMASSKFQKDNVA	ENNTRED	QQYDRLPLS	En_Gen	360 nM	6 of 6
KLVNFMNRGTHHTSNIA	DAVNRLD	QQYARLPLA	En_Gen	1.9 nM	6 of 6
HISNMQAYGYSATNSVA	DNTEKLN	QQYIRLPLT	En_Gibbs	1.2 nM	6 of 6
HISQSYGMTSRNKNSVA	ENSTRED	QQYDRLPLS	En_HC	2.8 µM	6 of 6
KVSEFMRGLMSRKNSIA	DNVTRSN	QQYDRLPLS	En_Gen	96 nM	6 of 6
KVSEFMKGLMMRTDSIA	DNTTRSN	QQYDRLPLS	En_Gen	5.4 nM	6 of 6
KQQFSGGGGSRNKNSVA	EASTRES	QQYHRLPLS	GP_Gibbs	2.4 nM	6 of 6
TISQMTSWMSNKKDNVA	EVSLREE	QQYDRLPLS	En_Gen	12 nM	6 of 6
KVDISQLYESRNKNSVA	NASLRCS	QQYHRLPLS	GP_Gibbs	1.2 nM	6 of 6
SISGFMKSLSAHMNSVA	DMTNREN	QQYDRLPLS	En_Gen	2.2 nM	6 of 6
TLTQVNGMESHNKDNVA	DLSTRGS	QQYHRLPLS	En_HC	1.0 nM	6 of 6
MLSDLVKQGSRNTNSVA	DNSTRGS	QQYDRLPLS	En_HC	61 nM	4 of 6
MFSQMLAIGHKVSNSVA	QASTRFN	QQYERLPLI	En_Gen	8.4 nM	6 of 6
KLSIMYQHTSRNKNNIA	ERSTRED	QQYHHLPLS	En_HC	1.6 nM	6 of 6
NVDISQNVNYNHKAAVA	GHDERVG	QQYSRLPLS	En_Gibbs	6.4 nM	6 of 6
KLMQSVQYESRNQNAVA	EASQRES	QQYHRLPLS	GP_Gibbs	770 pM	6 of 6
KMAQGWMYESRNKNSVA	NASYREM	QQYHRLPLS	GP_Gibbs	570 pM	6 of 6
IISQVDAYHSRNKNSIA	DQSTRGS	QQYDRLPLS	En_HC	nd	0 of 6
IVSQLMLWGMHVKNSIA	EAVTRLN	QQYERLPLF	En_Gen	nd	0 of 6
TFDHSYRFGALNTDSIA	HAEMRVA	QMYYRLPLM	En_Gibbs	nd	0 of 6
KIGATLNTLYEKKNNVA	DLVEREN	QQYFRLPLS	En_Gen	28 nM	3 of 6
TLSQLMDMTSRNENSVA	DLTTRGN	QQYHRLPLS	En_HC	410 nM	1 of 6
RIYIQSDYYMENRSAIA	EMSLKAH	QQYFKLPLA	En_Gibbs	nd	0 of 6
KLMGSMLYEQRMKNSVA	QASQRMS	QDYHRLPLS	GP_Gibbs	2.7 nM	6 of 6
MVTQMAMTGMKNKRSVA	NAETREY	QQYHHLPLI	En_Gen	22 nM	6 of 6
MISQIYNMGQFAINSVA	QASTRNQ	QQYDRLPLM	En_Gen	8.3 nM	6 of 6
KLQSVTGTEKVHGNNVA	EMETRER	QQYNRLPLS	En_Gen	1.7 nM	6 of 6
KLGQSVAMTSRQKNNVA	DLNERER	QQYHRLPLS	En_HC	nd	0 of 6
RIGITSDYYMENRSSIA	EMTVKEM	QQYQKLPLA	En_Gibbs	52 nM	6 of 6
KLMTQVGHQMDHKNSIA	HVDMVAQ	QQYMHLPLI	En_Gibbs	110 nM	6 of 6
KLEGSKEYLSRWKNSVA	HASVREV	QQYHRLPLS	GP_Gibbs	3.3 nM	6 of 6
KIGATLNMLEHKQNNVA	DLVERGN	QQYFRLPLS	En_Gen	1.0 nM	6 of 6
RIQQQMAGFERHAANIA	STAVRLW	QQYARLPFI	En_Gibbs	20 nM	6 of 6
MLDEYQSYGAANLNAVA	DANCTMF	QAYYRLPLS	En_Gibbs	8.9 nM	6 of 6
TLGSNMMVESVHKNNVA	ELSTRLN	QQYVRLPLS	En_Gen	8.8 nM	6 of 6
MSYMGDMLESVTRNSVA	NAETRED	QDYHRLPLS	En_HC	6.3 nM	5 of 6
LISGVWDYGSRNYNSVA	QTSTRED	QQYDRLPLE	En_HC	13 nM	6 of 6
KIYELGKGSIKINNNIA	QTDIREL	QSYNRLPLS	En_Gibbs	1.4 nM	6 of 6
KLYQSEWYESRMCNSVA	NASVRES	QQYHRLPLS	GP_Gibbs	2.8 nM	6 of 6
KMHISELYEDRNQNSVA	SASQRLE	QQYHRLPLS	GP_Gibbs	880 pM	6 of 6
KVDQSVLGLSRNQNAVA	AASTRES	QQYHRLPLS	GP_Gibbs	580 pM	6 of 6
KMSQSVDLESRNDNAVA	MASTRMD	QQYHRLPLS	GP_Gibbs	2.8 nM	6 of 6
MISQSFLIGMKAKNSVA	QTNTRET	QQYDRLPLI	En_HC	870 pM	6 of 6
MLWQQDEGFNGVKDAIA	NAEEREG	QQYGRLPLS	En_Gibbs	32 nM	6 of 6
HITYGMYVSGRYKSNIA	QAETRIK	QQYDRLPLI	En_Gen	26 nM	6 of 6
KLDFLGLYEQRNKNSVA	SASTRES	QQYHRLPLS	GP_Gibbs	470 pM	6 of 6
IISEVDAYESRNKNSIA	DQSTRGS	QQYDRLPLS	En_HC	5.1 nM	6 of 6
SLQEQSFVGQKDSNSMA	DSECKYN	QQYFQLPLM	En_Gibbs	14 nM	5 of 6
KMSQSVPYEERNLNNVA	NGSTRES	QQYHRLPLS	GP_Gibbs	1.3 nM	6 of 6
IVSQLMMWGMHAKNSIA	EAQTRLN	QQYDRLPLI	En_Gen	nd	0 of 6
MITAVMYAYNESFSSIA	DKTISVN	QQYDRLPLL	En_Gibbs	nd	0 of 6
KMSMSWPYEDLNKNSVA	NASTRMQ	QQYHRLPLS	GP_Gibbs	3.1 nM	6 of 6
KLLQEVTGRSQERNSVA	HNSTRED	QQYDRLPLI	En_HC	330 nM	6 of 6
ALSQSMDMTSRNHNSVA	DLSTREN	QQYHRLPLS	En_HC	460 pM	6 of 6
TISQLYNMGQFAINSVA	QASLRNE	QQYDRLPLT	En_Gen	19 nM	4 of 6
RIDAYPPMQGKNIDSIA	ENAITLH	QQYANLPLS	En_Gibbs	210 nM	4 of 6
MVSQLMWWGMHAKNSIA	EAQTRLN	QQYDRLPLF	En_Gen	240 nM	1 of 6
TIGSTLMYGMRNRNNVA	EVSERLN	QQYDRLPLL	En_Gen	7.5 nM	6 of 6
KLQNFSQEHNGMWNSIA	DMTMKHT	QQYNRLPLV	En_Gibbs	7.0 nM	6 of 6
KFGQMVLTGSYVKNSIA	QSSTREN	QQYHRLPLS	En_HC	2.0 nM	6 of 6
MVSQLMLWGMHAKNSIA	EAEHRCN	QQYDRLPLF	En_Gen	87 nM	1 of 6
MISQVTGLGQRQRNNVA	QTSMRET	QQYDRLPLI	En_Gen	11 nM	6 of 6

A sequence measured in both rounds can read differently, since the two assays cover different ranges.
The authors averaged sequences with at least three values out of six and counted those with two or fewer as poor binders.
Of ten entries with the parent sequence, four were seen in most replicates (averages 2.2 nM to 240 nM), three in one and three in none, so single entries are noisy.
Three control strains display no target. For all light chain designs, 4% of the pairings with them gave a signal, with a median of 430 nM and one signal in twenty below 38 nM, so weak values seen in few replicates may be background.

From the AlphaSeq antibody data of Li et al. 2023 (doi:10.1038/s41467-023-39022-2), copy in the FLAb collection.